Results as given in patent US9995734B2, “Human T cell line assay for evaluating the immunologic identity of glatiramer acetate preparations” (Mylan Inc., priority 2013, dated 2018).

System: Donor 3 T-cell cultures
Settings: Donor 3 cultures; 100 μg/mL

For “L-glutamic acid polymer with L-alanine, L-lysine and L-tyrosine, acetate (salt) [GA]”, the “loss of cells following addition of GA” value was “Significant loss of cells”.
